The text below walks through data of patent US20250205240A1, “COMBINATIONS” (Recurium IP Holdings, LLC, priority 2022, published 2025).

In experiment [1] the test system is HT-29 cell line. Description: In vitro tumor cell proliferation assay (3D spheroid, 3D CTG), HT-29. It counts as cell-based. The settings on record: HT-29 spheroids, 192 h; 300 nM ZN-c3, 10 nM encorafenib, 25 μg/mL cetuximab; relative to 0.1% DMSO. The protocol: (§1) Cell suspensions containing 1.5×10^3 total cells in 100 μL culture media were deposited in each well of an ultra-low attachment 96 well plate. Plates were incubated at 37° C. with […] and 5% CO2 for 72 h to allow for spheroid formation. […] ZN-c3 and/or Encorafenib compounds in DMSO were deposited into the plates using an automated drug dispenser at the indicated concentrations. Total DMSO content was normalized to 0.1% of the total volume in all assay conditions. Plates were sealed with breathable film to reduce evaporation and incubated at 37° C. with […] and 5% CO2 for 192 h. After 192 h, plates were removed from the incubator and allowed to come to room temperature. 100 μL room temperature 3D CTG reagent (Promega, Cat #G9683) was added to each well. Plates were agitated at 520 revolutions per minute (rpm) for 5 mins, allowed to stabilize protected from light for 30 mins, then luminescence was measured on an M5e plate reader (SpectraMax). Percent viability was calculated as percentage of cell viability relative to DMSO-only vehicle control.

For experiment [2], the system named is LS411N cell line. Description: In vitro tumor cell proliferation assay (3D spheroid, 3D CTG), LS411N. Format: cell-based. The settings on record: LS411N spheroids, 192 h; 350 nM ZN-c3, 75 nM encorafenib, 25 μg/mL cetuximab; relative to 0.1% DMSO. The method, then: as §1
For experiment [3], the system named is HT-29 CDX model (BRAFmt CRC). Format: in vivo, BALB/c nude mice. As to conditions: ZN-c3 60 mg/kg QD p.o., encorafenib 15 mg/kg QD p.o., cetuximab 15 mg/kg BIW i.p. The method, then: (§2) CDX Models: 6-8 week old BALB/c nude mice were inoculated subcutaneously on the right flank with the single cell suspension of 95% viable tumor cells (5×10^6) in 100 μL RPMI 1640 without serum (COLO205), 95% viable tumor cells (2×10^6) in 100 μL McCoy's 5a Medium Modified without serum (HT-29), or 95% viable tumor cells (2×106) in 100 μL RPMI 1640 and Matrigel mixture (1:1 ratio) without serum (LS411N).
(§3) Grouping and treatments started when the mean tumor volume reached about 220 mm^3 (with individual tumors in the range of 200-240 mm^3). Vehicle animals were treated daily with 10 mL/kg HP-β-CD p.o. (oral gavage). Encorafenib was prepared weekly in 0.5% carboxymethyl cellulose: 0.5% Tween 80:99% deionized water and dosed daily (QD) at the indicated doses orally (p.o.) (see Tables 4 and 5 for dosage amounts). ZN-c3 was prepared daily in 20% HP-B-CD and dosed daily at the indicated doses p.o. (see Tables 4 and 5 for dosage amounts). […] Body weight and tumor volume of all animals was measured twice weekly throughout the studies that were 21 or 22 days or 3 weeks in duration (for CDX models HT-29 and LS411N) or that were 28 days or 4 weeks in duration (for PDX models CRC769, CRC563 and CTG-1009). The measurement of tumor size was performed with a caliper and the tumor volume (mm3) was estimated using the formula: TV=a×b2/2 throughout the study, where “a” and “b” is long and short diameters of a tumor, respectively. Animals were euthanized when their individual tumor burden exceeded 2000 mm^3 or is in a continuing deteriorating condition or close to a comatose state.

Experiment [4] concerns LS411N CDX model (BRAFmt CRC). It counts as in vivo, BALB/c nude mice. As to conditions: ZN-c3 60 mg/kg QD p.o., encorafenib 20 mg/kg QD p.o., cetuximab 15 mg/kg BIW i.p. The protocol: as §2, §3
The test system of experiment [5] is CRC563 PDX model (BRAFmt CRC). Format: in vivo, female athymic nude Foxn1nu mice. The settings on record: ZN-c3 60 mg/kg QD p.o., encorafenib 20 mg/kg QD p.o., cetuximab 20 mg/kg BIW i.p., 28-day study. The method, then:
(§4) PDX Models: Tumor fragments (CRC769, CRC563, CTG-1009) were brought out of cryopreservation and implanted into female athymic nude Foxn1nu mice. Fragments were allowed to grow then excised once an appropriate volume was reached. A tumor slurry was made of 50% freshly harvested tumors minced to small tumor fragments in PBS and 50% Matrigel. The tumor slurry was injected subcutaneously into 6-8 week old female athymic nude Foxn1nu mice on the flank.
as §3

The test system of experiment [6] is CRC769 PDX model (BRAFmt CRC). It counts as in vivo, female athymic nude Foxn1nu mice. As to conditions: ZN-c3 60 mg/kg QD p.o., encorafenib 20 mg/kg QD p.o., cetuximab 20 mg/kg BIW i.p., 28-day study. The protocol:
as §4, §3

Experiment [7] relates to CTG-1009 PDX model (BRAFmt CRC). Format: in vivo, female athymic nude Foxn1nu mice. The settings on record: ZN-c3 60 mg/kg QD p.o., encorafenib 20 mg/kg QD p.o., cetuximab 15 mg/kg BIW i.p., 28-day study. The protocol: as §4, §3

As to cetuximab, the “% Inhibition” value in experiment [1] amounted to 3.66%; in experiment [2], 0.91%. For the same substance, the “Tumor Vol. Change from D 14-D 21 (%)” value is 38.7% in experiment [3] and 44.9% in experiment [4]. Moreover, the TGI was 12.2 in experiment [3] (21- or 22-day study); 15.9 in experiment [4] (21- or 22-day study); 21.8 in experiment [5]; −4.5 in experiment [6]; −42.6 in experiment [7].

As usually defined, the % Inhibition is the drop in the measured response relative to a control, in per cent. The low end stands for little suppression, the high end for strong suppression.
